The source of these data is patent US9291621B2, “AGER-peptides and use thereof” (AbbVie Deutschland GmbH & Co. KG, priority 2005, dated 2016).

Assay [1] has as its target T1, Nogo receptor (His-NogoR coated on microtiter plate) (Homo sapiens, UniProt Q9BZR6).
T1 construct: soluble His-NogoR; Myc (C); made in house; host or cells: CHO-K1
T1 sequence (Q9BZR6 27-447 limits assumed): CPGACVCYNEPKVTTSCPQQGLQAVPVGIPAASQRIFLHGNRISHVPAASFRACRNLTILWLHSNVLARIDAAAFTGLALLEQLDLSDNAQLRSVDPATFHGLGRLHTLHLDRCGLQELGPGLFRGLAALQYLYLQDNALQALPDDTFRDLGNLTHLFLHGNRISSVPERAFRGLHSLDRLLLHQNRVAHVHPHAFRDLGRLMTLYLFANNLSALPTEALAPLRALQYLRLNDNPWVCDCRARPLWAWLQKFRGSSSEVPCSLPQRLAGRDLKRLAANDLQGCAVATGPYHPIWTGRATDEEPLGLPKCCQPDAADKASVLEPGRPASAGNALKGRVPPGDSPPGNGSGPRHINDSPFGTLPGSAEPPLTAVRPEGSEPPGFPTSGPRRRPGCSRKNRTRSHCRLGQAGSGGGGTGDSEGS
In words: AP-Nogo66 competition assay. The following applies: AP-Nogo66 0.1 nM; competitor 1.2-100 nM; read-out: IC50, blocking of AP-Nogo66 binding to NgR. Here is the method: This was followed by a blocking step for 1 hour with 2% strength bovine serum albumin (BSA) in Tris-HCl, pH 7.2, at room temperature. […] These stock solutions were then diluted three-fold.
After each incubation step, the plates were washed with washing buffer (10 mM Tris-HCl, pH 7.2 and 0.05% Tween20).

In assay [2] the target is T2, sRAGE-6×HIS (amino acids 23-352, NP_001127) (Homo sapiens, UniProt Q15109).
T2 construct: fusion protein sRAGE-6×HIS (amino acids 23-352, NP_001127); made in house
In words: AlphaScreen measurement of peptide binding to sRAGE. The following applies: biotinylated peptide 0-300 nM, sRAGE-6×HIS 2.5 ng/μl. Here is the method: The binding of NtermR31 or NtermR13 to the RAGE receptor was measured by employing the AlphaScreen™ System (order number: 6760610M) from Perkin Elmer (Shelton, Conn., USA).
The entire homogeneous assay was carried out in 25 mM HEPES, 100 mM NaCl of pH 7.4 and 0.1% BSA in a volume of 20 μl. The mixture comprised 2.5 ng/μl of the fusion protein sRAGE-6×HIS (amino acids 23-352, NP_001127), 20 ng/μl of anti-HIS acceptor beads, 20 ng/μl streptavidin donor beads and NtermR13 or NtermR31 peptides in the concentrations of 0, 1, 5, 10, 25, 50, 100, 150 and 300 nM.
The individual components were brought together in a defined time sequence. […] The various amounts of peptide were then added in order, after a further 30 minutes, to add the donor beads. After a further 60 minutes, the fluorescence was measured in the AlphaQuest instrument from Perkin-Elmer with a time lag of one second. Each measured point was determined as triplicate. […]
The binding to the RAGE receptor was measured by employing the AlphaScreen™ System (order number: 6760610M) from Perkin Elmer (Shelton, Conn., USA). […]
The individual components were brought together in a defined time sequence. […] After a further 60 minutes, the fluorescence was measured in the AlphaQuest instrument from Perkin-Elmer with a time lag of one second. Each measured point was determined as triplicate. […]

Consider “QNITARIGEPLVLKCKGAPKKPPQRLEWKLN [NtermR31]”, for which the half-inhibitory concentration (IC50) in assay [1] turned out to be 50 nM. The sequence further showed a concentration giving a half-maximal response (EC50) in assay [2] of 62 nM.
